This note sets out measurements from ChEMBL document CHEMBL1949670, “Probes for narcotic receptor mediated phenomena. 44. Synthesis of an N-substituted 4-hydroxy-5-(3-hydroxyphenyl)morphan with high affinity and selective μ-antagonist activity” (Eur J Med Chem, 2012).

This experiment has as its system Mus musculus. As to the kind of experiment: Antinociceptive activity in sc dosed mouse. It counts as functional.

A word on the ED50: it is the dose at which the effect has come halfway, by size or by number of responders. `CN1CC[C@]23c4c5ccc(O)c4O[C@H]2[C@@H](O)C=C[C@H]3[C@H]1C5` [MORPHINE]: the 50% effective dose (ED50) amounted to 2.1 mg/kg.
